Tested on: HCC827-ER1 (Erlotinib resistant variant of HCC827 NSCLC adenocarcinoma cell line)
Details: HCC827-ER1, in vitro

## COc1cc2ncnc(Nc3ccc(F)c(Cl)c3)c2cc1OCCCN1CCOCC1 [Gefitinib, N-(3-chloro-4-fluoro-phenyl)-7-methoxy-6-(3-morpholin-4-ylpropoxy)quinazolin-4-amine]
  cross-resistance of HCC827-ER1 with the alternate EGFR-TKI: cross-resistance

Reference: patent US9937179B2, “Combined treatment for cancer resistant to an epidermal growth factor receptor kinase inhibitor” (Pre Clinical Oncology Services Ltd., priority 2014, dated 2018)
